Data from ChEMBL document CHEMBL5500402, “Potent, Selective Agonists for the Cannabinoid-like Orphan G Protein-Coupled Receptor GPR18: A Promising Drug Target for Cancer and Immunity” (J Med Chem, 2024).

Amino acid sequences for entries named in this document (tags omitted).
UniProt P32249, whole entry: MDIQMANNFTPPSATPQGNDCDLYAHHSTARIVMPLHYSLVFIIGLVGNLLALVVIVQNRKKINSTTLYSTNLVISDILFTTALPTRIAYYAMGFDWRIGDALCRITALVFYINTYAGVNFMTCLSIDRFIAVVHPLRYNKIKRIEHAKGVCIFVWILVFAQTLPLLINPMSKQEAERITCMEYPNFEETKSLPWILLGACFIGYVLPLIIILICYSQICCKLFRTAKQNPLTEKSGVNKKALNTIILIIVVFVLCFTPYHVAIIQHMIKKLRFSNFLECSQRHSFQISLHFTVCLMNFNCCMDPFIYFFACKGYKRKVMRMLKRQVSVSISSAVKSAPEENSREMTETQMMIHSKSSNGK
UniProt P21554, whole entry: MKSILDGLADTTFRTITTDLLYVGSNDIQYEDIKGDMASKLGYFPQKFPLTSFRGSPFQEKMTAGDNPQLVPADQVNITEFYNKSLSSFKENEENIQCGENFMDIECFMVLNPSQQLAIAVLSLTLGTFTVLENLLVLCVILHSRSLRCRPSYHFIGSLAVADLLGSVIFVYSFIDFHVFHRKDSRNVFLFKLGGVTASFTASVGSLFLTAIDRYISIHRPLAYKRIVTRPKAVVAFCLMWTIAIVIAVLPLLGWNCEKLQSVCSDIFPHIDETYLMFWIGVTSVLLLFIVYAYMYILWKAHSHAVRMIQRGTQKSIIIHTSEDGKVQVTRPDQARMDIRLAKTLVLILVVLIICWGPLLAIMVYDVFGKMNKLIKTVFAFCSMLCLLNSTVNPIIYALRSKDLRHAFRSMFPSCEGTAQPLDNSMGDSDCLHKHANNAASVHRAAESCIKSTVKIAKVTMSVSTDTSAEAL
UniProt P34972, whole entry: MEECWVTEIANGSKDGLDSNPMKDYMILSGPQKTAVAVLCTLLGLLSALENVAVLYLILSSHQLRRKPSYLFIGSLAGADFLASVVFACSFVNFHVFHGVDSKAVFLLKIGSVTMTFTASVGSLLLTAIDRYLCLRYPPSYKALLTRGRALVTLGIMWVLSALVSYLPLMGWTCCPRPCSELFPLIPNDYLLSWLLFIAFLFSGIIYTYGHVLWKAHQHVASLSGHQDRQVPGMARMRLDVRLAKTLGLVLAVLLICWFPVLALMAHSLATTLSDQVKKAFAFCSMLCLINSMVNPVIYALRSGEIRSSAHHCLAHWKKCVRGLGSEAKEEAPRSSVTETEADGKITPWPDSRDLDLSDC

How the values were obtained:
[1] = target: T1, N-arachidonyl glycine receptor (Homo sapiens) (UniProt Q14330); assay: Agonist activity at human GPR18-eYFP and Renilla luc expressed in CHO cells assessed as beta-arrestin2 recruitment by BRET/beta-arrestin2 enzyme complementation assay; type: functional, cell-based; conditions: filed as agonist
T1 sequence (whole entry): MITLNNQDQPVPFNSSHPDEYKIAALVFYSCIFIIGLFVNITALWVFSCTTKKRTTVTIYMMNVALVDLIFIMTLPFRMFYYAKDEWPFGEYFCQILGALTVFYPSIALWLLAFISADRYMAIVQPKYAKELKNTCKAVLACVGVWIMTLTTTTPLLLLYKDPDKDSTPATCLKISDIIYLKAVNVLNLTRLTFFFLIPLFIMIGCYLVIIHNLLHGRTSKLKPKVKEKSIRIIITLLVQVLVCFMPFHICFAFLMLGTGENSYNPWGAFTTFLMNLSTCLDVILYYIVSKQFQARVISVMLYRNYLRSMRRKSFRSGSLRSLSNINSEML

[2] = target: T2, G-protein coupled receptor 183 (Homo sapiens, UniProt P32249); assay: Agonist activity at human GPR183 expressed in PathHunter CHO-K1 cells assessed as activation by measuring beta-arrestin2 recruitment at 10 uM relative to control; type: functional, cell-based
[3] = target: T2, G-protein coupled receptor 183; assay: Agonist activity at human GPR183 expressed in PathHunter CHO-K1 cells assessed as activation by measuring beta-arrestin2 recruitment at 30 uM relative to control; type: functional, cell-based
[4] = target: Cannabinoid receptor 1 (Homo sapiens, UniProt P21554); assay: Displacement of [3H]-CP55940 from human CB1 receptor expressed in CHO cells assessed as maximal displacement by radioligand competition binding assay relative to control; type: cell-based
[5] = target: Cannabinoid receptor 2 (Homo sapiens, UniProt P34972); assay: Displacement of [3H]-CP55940 from human CB2 receptor expressed in CHO cells assessed as maximal displacement by radioligand competition binding assay; type: cell-based

Cn1c(=O)c2c(nc(NCCc3c[nH]c4ccccc34)n2Cc2ccc(Cl)cc2)n(C)c1=O
Activity [1]: Dose-Dependent Effect | Activity [2]: 1% | Activity [3]: 3%

Cc1ccc(Cn2c(NCCc3c[nH]c4ccccc34)nc3c2c(=O)n(C)c(=O)n3C)cc1
Activity [4]: 55% | Activity [5]: 87%
